## Vapor pressure values, as collected for the OPERA models

From the experimental data distributed with OPERA 2.9.

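The OPERA project collected these measurements from public sources as training and test data for property models. A listed value is a point estimate from one report or more. Method, purity and exact conditions of the single measurements are not given. A value may pool stereoisomers or salt forms, and the file does not say which form was measured. Some entries may be limits or estimates that an upstream database listed as plain numbers.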

Vapor pressures (log10 mmHg) refer to near room temperature, 15 to 30 °C; higher is more volatile.
"n/a" marks a cell with nothing listed here.
The databases behind each value are named after "via".

SMILES,name,log VP (log10 mmHg),via
C[SiH](O[Si](C)(C)C)O[Si](C)(C)C,"1,1,1,3,5,5,5-Heptamethyltrisiloxane",0.803,eChemPortal
Cl[Si](Cl)(C1CCCC1)C1CCCC1,Dicyclopentyldichlorosilane,-1.802,eChemPortal
COc1ccc([N+](=O)[O-])cc1OC(C)=O,2-Methoxy-5-nitrophenol acetate,-2.979,eChemPortal
C=CC(C)C#N (stereo not drawn),2-Methyl-3-butenenitrile,1.47,PubChem
C=C(C)C(=O)OCCN(C)C,2-(Dimethylamino)ethyl methacrylate,-0.181,"OFMPub, eChemPortal"
Clc1cc(-c2c(Cl)c(Cl)c(Cl)c(Cl)c2Cl)cc(Cl)c1Cl,"2,3,3',4,4',5,5',6-Octachlorobiphenyl",-6.545,OCHEM
CC(C)(C)Nc1nc(N)nc(Cl)n1,Desethylterbutylazine,-5.58,OCHEM
C=C(C)CC1CCCCCCCCCCC1=O (stereo not drawn),2-(2-Methylprop-2-en-1-yl)cyclododecan-1-one,-3.401,eChemPortal
Cc1cc(O)c(C(C)(C)C)cc1Sc1cc(C(C)(C)C)c(O)cc1C,"4,4'-Thiobis(6-tert-butyl-m-cresol)",-6.222,PubChem
COCC(F)(F)C(F)(F)C(F)(F)F,"Methyl 2H,2H-perfluorobutyl ether",2.084,ICF
Cc1nn(C)c(O)c1C(O)c1ccc(C(F)(F)F)cc1S(C)(=O)=O (stereo not drawn),Pyrasulfotole,-8.493,eChemPortal
C=C(C)C(=O)OCCC(F)(F)C(F)(F)C(F)(F)C(F)(F)C(F)(F)C(F)(F)F,"3,3,4,4,5,5,6,6,7,7,8,8,8-Tridecafluorooctyl methacrylate",-1.274,eChemPortal
C/C=C/C=C/C(=O)O,"2E,4E-Hexadienoic acid",-3.87,eChemPortal
CCO/C=C1\N=C(c2ccccc2)OC1=O,Oxazolone,-5.194,OCHEM
Cl.Cl.Nc1ccc(OCCO)c(N)c1,"Ethanol, 2-(2,4-diaminophenoxy)-, hydrochloride (1:2)",-8.539,eChemPortal
CCCCc1ccc(-c2ccc(-c3ccc(CC)cc3)cc2F)cc1,n/a,-7.573,eChemPortal
CCCC1CCC(=O)O1 (stereo not drawn),gamma-Heptalactone,0.322,eChemPortal
C=C(OC(C)=O)c1ccccc1,1-Phenylethenyl acetate,-1.044,eChemPortal
O=C([O-])C(O)C(O)C(=O)[O-].[K+].[K+] (stereo not drawn),Potassium tartrate,-7.307,eChemPortal
CCCCCC1CCCC1=O (stereo not drawn),2-Pentylcyclopentanone,-0.937,eChemPortal
CCOc1ccc(-c2ccc(C)cc2)c(F)c1F,n/a,-4.764,eChemPortal
CCCCC(C#N)c1ccccc1 (stereo not drawn),2-Phenylhexanenitrile,-1.215,eChemPortal
CCCCCCCCCCCCN(CCCN)CCCN,"N-(3-Aminopropyl)-N-dodecylpropane-1,3-diamine",-6.184,eChemPortal
Cc1c(O)cccc1O,"2-Methyl-1,3-benzenediol",-3.894,eChemPortal
CC(Cl)=CCCl,"1,3-Dichloro-2-butene",0.999,PubChem
CCCC(=O)OCCC(C)CCC=C(C)C (stereo not drawn),Citronellyl butyrate,-1.202,eChemPortal
CC1=CC(=O)c2ccccc2C1=O,Menadione,-3.283,eChemPortal
CCNC(=O)C(=O)O[C@@H]1C[C@H](C)CC[C@H]1C(C)C,n/a,-4.576,eChemPortal
C=C(C#N)C(=O)OCC,Ethyl cyanoacrylate,-0.656,"OFMPub, eChemPortal"
CCC(CO)(CO)CO,"2-Ethyl-2-(hydroxymethyl)-1,3-propanediol",-4.348,"OCHEM, eChemPortal"
C=CC(=O)OCCCCCCOC(=O)C=C,"1,6-Hexanediol diacrylate",-3.347,eChemPortal
OCCN1CCCCC1,1-Piperidineethanol,-0.695,eChemPortal
OCCCCCCCCCCCCO,"1,12-Dodecanediol",-6.287,eChemPortal
CCCCNC(=O)CC[C@H](NC(=O)C(CC)CCCC)C(=O)NCCCC (some centres undefined),Dibutyl ethylhexanoyl glutamide,-9.803,eChemPortal
CCCCN(C)C,"N,N-Dimethylbutylamine",1.701,eChemPortal
C=CC(=O)OC(C(F)(F)F)C(F)(F)F,Hexafluoroisopropyl acrylate,1.8,ChemicalBook
O=S(=O)([O-])CCN1CCN(CCS(=O)(=O)[O-])CC1.[Na+].[Na+],"1,4-Piperazinediethanesulfonic acid, disodium salt",-9.634,eChemPortal
CCC(C)CCCC(C)(C)O (stereo not drawn),"2,6-Dimethyloctan-2-ol",-1.156,eChemPortal
OCCN1CCOCC1,4-(2-Hydroxyethyl)morpholine,-1.084,eChemPortal
COC(=O)CCCCCCCCC(=O)OC,Dimethyl decanedioate,-3.222,eChemPortal
CNC(C)C,N-Methylisopropylamine,2.45,eChemPortal
COC(=O)/C=C(\C)C=O,Methyl (E)-3-methyl-4-oxobut-2-enoate,-0.223,eChemPortal
C=C(C)C(=O)Oc1ccccc1,Phenyl methacrylate,-2.255,eChemPortal
O=C(Cc1ccc(-c2ccccc2)cc1)OCC1CCCCC1,n/a,-6.678,eChemPortal
CCCN(C)C,Dimethyl-N-propylamine,2.131,eChemPortal
CCC(=O)O[C@@H]1C[C@H]2CC[C@]1(C)C2(C)C,Isobornyl propanoate,-1.634,eChemPortal
C1CNCCNCCNCCN1,Cyclen,-4.364,eChemPortal
CC(C)(O)C(=O)c1ccccc1,2-Hydroxy-2-methylpropiophenone,-2.247,eChemPortal
CCCCCCOC(=O)/C=C/C(=O)OCCCCCC,Dihexyl (2E)-2-butenedioate,-3.648,eChemPortal
CCCCN(CCCC)c1ccc2c(c1)Oc1cc(C)c(Nc3ccccc3)cc1C21OC(=O)c2ccccc21 (stereo not drawn),n/a,-5.71,eChemPortal
CCCCCCCCC(C)C#N (stereo not drawn),"Decanenitrile, 2-methyl-",-1.763,eChemPortal
CCCC(C)=NO[Si](ON=C(C)CCC)(ON=C(C)CCC)c1ccccc1,n/a,-5.714,eChemPortal
CC(=O)C(C)C=CC1CC=C(C)C1(C)C (stereo not drawn),n/a,-2.171,eChemPortal
CC(C)C=NCC1CCCC(CN=CC(C)C)C1 (stereo not drawn),n/a,-0.389,eChemPortal
CC(=O)c1cccc(C(F)(F)F)c1,"Ethanone, 1-[3-(trifluoromethyl)phenyl]-",-0.581,eChemPortal